Screens (PubChem BioAssay)
Shown are actives, neighbours in structure and some others; about 16% of the full set was active somewhere.
miR-21 reporter = miR-21 reporter, rising signal | AID 2288 | HeLa miR-21 FLuc reporter, luciferase, 48 h | 340,000 tested, under 10 active | Potency, µM (doses to about 38.3 µM), for inactives: at the top dose reporter change, positive = more light; active = well fitted rising curve with a large enough effect; inconclusive = small, poorly fitted or top-dose-only effect; inactive = no such curve, though single readings can be large or run the other way;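 note: % of control where 0% means no effect; miR-21 action dims this reporter so a rising signal means less miR-21 action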
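HeLa cells endogenously expressing miR-21, stably carrying CMV-driven firefly luciferase with a downstream miR-21 binding site, 2000 cells/well. Titrations up to approximately 40 uM, 48 hours; luciferase luminescence read.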
TDP1 block = TDP1 (human) enzyme inhibition; Q9NUW8; recombinant TDP1, AlphaScreen DNA substrate cleavage; Potency, µM (top dose mostly 130 µM), inactives show top-dose activity change, negative = inhibition, actives largely listed as inhibitors; hit rate 0.28% among 350,000; further: potency means the concentration at half of the fitted maximal effect; on the % scale 0 is the no-effect control and ±100 the full control effect; nearly all actives have a fitted effect of over 40% in size
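Here, a 5' biotin and 3' phosphotyrosine-FITC DNA oligonucleotide reports Tdp1 activity: intact substrate bridges AlphaScreen beads, while cleavage leaves a 3' phosphate and drops signal. All incubations at room temperature.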
DT40 TDP1 CPT = growth inhibition of DT40 Tdp1-/-;hTDP1 cells with camptothecin (screen for TDP1 inhibitors). chicken DT40 Tdp1-/-;hTDP1 cells + 20 nM CPT, ATP luminescence, 48 h. Potency, µM (titrated, usually from 46.2 µM), for inactives: at the top dose activity change, negative = growth inhibition, most hits filed as inhibitors. hit rate 12% among 420,000; further: potency means the concentration at half of the fitted maximal effect; on the % scale 0 is the no-effect control and ±100 the full control effect; nearly all actives have a fitted effect of over 55% in size
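Chicken DT40 Tdp1-/- cells complemented with human TDP1, 400 cells/well, exposed to compounds plus 20 nM camptothecin for at least 48 h at 37 C; viability read as ATP content by CellTiter-Glo luminescence.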
DT40 TDP1 no CPT = qHTS for Inhibitors of human tyrosyl-DNA phosphodiesterase 1 (TDP1): qHTS in cells in absence of CPT; Potency, µM (top dose mostly 46.2 µM), for inactives: top-dose activity change, negative = growth inhibition, most hits filed as inhibitors; hit rate 15% among 420,000; DT40 Tdp1-/- hTDP1 cells, no CPT, ATP luminescence, 48 h; further: potency means the concentration at half of the fitted maximal effect; on the % scale 0 is the no-effect control and ±100 the full control effect; nearly all actives have a fitted effect of over 55% in size
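Growth of hTDP1-complemented DT40 Tdp1-knockout cells is measured by ATP luminescence after at least 48 hr compound exposure at 37 °C, with DMSO substituting for the 20 nM CPT used in the parallel screen.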
uPA surface inh = inhibitors of cell surface uPA generation | AID 540303 | cell surface uPA generation assay, qHTS | hit rate 0.31% among 330,000 | Potency, µM (highest dose often 38.3 µM), without a hit: top-dose activity change, negative = inhibition, usual class: inhibitors; active means well fitted inhibition curve with a large enough effect; inconclusive means small, poorly fitted or top-dose-only effect; inactive means no such curve, though single readings can be large or run the other way; tested in mouse RAW 264.7 cells; further: potency means the concentration at half of the fitted maximal effect; on the % scale 0 is the no-effect control and ±100 the full control effect; nearly all actives have a fitted effect of over 55% in size
* = called active by the depositor; ? = inconclusive; / = not tested or not shown; [ ] = remark or other dose. Unless noted, the call rests on the fitted dose curve; in most records, active means well fitted curve in the direction sought with a large enough effect; inconclusive means small, poorly fitted or top-dose-only effect, or another doubt; inactive means no such curve, though single readings can be large; an effect the other way counts as inactive or inconclusive.

(1) Cc1cc(C(=O)CSc2n[nH]c(N)n2)c(C)n1-c1ccc2c(c1)OCO2
(2) COC(=O)C1=C(C)NC2=C(C(=O)CCC2)C1c1cccc(C)n1 (centres undefined)
(3) O=C(Cn1cc(C(=O)c2cccs2)c2ccccc21)Nc1ccc(Br)cc1
(4) COc1ccc(OC)c(NC(=O)Cn2cc(C(=O)c3cccs3)c3ccccc32)c1
(5) O=C(Cn1cc(C(=O)c2ccco2)c2ccccc21)Nc1ccc(Br)cc1
(6) COc1ccccc1NC(=O)Cn1cc(C(=O)c2ccco2)c2ccccc21
(7) COc1ccc(OC)c(NC(=O)Cn2cc(C(=O)c3ccco3)c3ccccc32)c1
(8) NC(=O)CSc1nnc(Cn2c(=O)sc3ccccc32)n1-c1ccccc1
(9) CC1=C(C(=O)N2CCCC(N3CCN(c4ccccc4F)CC3)C2)OCCO1 (centres undefined)
(10) O=C(CSc1nc(-c2ccccc2)[nH]c1-c1ccccc1)Nc1ccc2c(c1)OCO2

compound no.	1	2	3	4	5	6	7	8	9	10
miR-21 reporter	-30.8%	3.0%	-3.4%	19.7%	0.9%	3.4%	17.6%	-9.2%	-6.5%	?
TDP1 block	10.5%	9.5%	3.2%	3.2%	0.0%	0.0%	2.3%	-2.6%	5.6%	10.0%
DT40 TDP1 CPT	?	9.7%	?	?	?	-5.2%	?	?	2.6%	20.6µM*
DT40 TDP1 no CPT	23.1µM*	5.3%	5.8µM*	18.4µM*	?	-10.1%	16.4µM*	2.1%	-0.5%	14.6µM*
uPA surface inh	-1.9%	/	/	/	/	-15.5%	-7.6%	12.6%	-2.7%	/

(11) O=C(CSc1nc(-c2ccccc2)c(-c2ccccc2)[nH]1)Nc1ccc2c(c1)OCO2
(12) O=C(CSc1ccccc1)Nc1ccc2c(c1)OCO2
(13) COc1cc(-c2nc(SCC(=O)Nc3ccc4c(c3)OCO4)c(-c3ccccc3)[nH]2)cc(OC)c1OC
(14) COc1ccc(-c2cn3c(C)c(C(=O)Nc4cccc(NC(C)=O)c4)sc3n2)cc1
(15) COc1ccc(-c2cn3c(C)c(C(=O)N4CCN(c5ccccc5F)CC4)sc3n2)cc1
(16) Cc1c(C(=O)Nc2ccncc2)sc2nc(-c3ccc(F)cc3)cn12
(17) Cc1c(C(=O)N2CCN(c3ccccc3F)CC2)sc2nc(-c3ccccc3)cn12
(18) Cc1c(C(=O)Nc2cc(F)ccc2F)sc2nc(-c3ccc(F)cc3)cn12
(19) CCOc1ccc(NC(=O)c2sc3nc(-c4ccc(OC)cc4)cn3c2C)cc1
(20) COc1ccc(-c2cn3c(C)c(C(=O)Nc4ccncc4)sc3n2)cc1

compound no.	11	12	13	14	15	16	17	18	19	20
miR-21 reporter	-13.0%	-63.1%	21.7%	-13.8%	17.8%	-17.4%	-0.3%	-10.0%	-1.4%	-16.1%
TDP1 block	0.0%	-19.6%	7.5%	4.0%	/	-4.1%	0.0%	0.6%	-3.0%	-2.9%
DT40 TDP1 CPT	?	18.6%	?	?	23.1µM*	7.31µM*	?	?	16.4µM*	3.66µM*
DT40 TDP1 no CPT	13µM*	-1.9%	16.4µM*	3.2%	18.4µM*	5.17µM*	?	?	7.31µM*	5.8µM*
uPA surface inh	3.2%	-2.1%	/	-5.6%	10.0%	?	10.2%	/	/	-21.5%

(21) COc1ccccc1NC(=O)C1CCCCC1
(22) Cc1ccc(SCCCn2cncn2)cc1
(23) Cc1ccc(C(Sc2ccccc2)C(Cn2cncn2)C(=O)c2ccccc2)cc1 (centres undefined)
(24) NC(=NCc1ccc(Cl)c(Cl)c1)NC(=O)c1nc(Cl)c(N)nc1N
(25) NC(=NCc1ccc(Cl)cc1Cl)NC(=O)c1nc(Cl)c(N)nc1N
(26) Cc1nc(C)c(C(=O)NNS(=O)(=O)c2ccc3ccccc3c2)s1
(27) Cc1nc(NS(=O)(=O)c2ccccc2)sc1C(=O)NNS(=O)(=O)c1ccccc1
(28) O=C(O)C1CCCCC1C(=O)NCc1ccccn1 (centres undefined)
(29) CCCCN(CCCC)c1nc(OC)nc(-n2nnc(C(C)=O)c2C)n1
(30) CC(=O)c1nnn(-c2nc(N)nc(N(c3ccccc3)c3ccccc3)n2)c1C

compound no.	21	22	23	24	25	26	27	28	29	30
miR-21 reporter	-5.1%	-1.2%	21.8%	/	/	-0.5%	-0.4%	-0.2%	-3.2%	-0.1%
TDP1 block	6.8%	2.3%	7.9%	10.7%[56.1 µM]	15.8%	-2.3%	0.6%	-5.5%	-1.0%	2.5%
DT40 TDP1 CPT	1.0%	-6.1%	?	/	6.23µM*	?	-2.4%	-9.7%	23.1µM*	29.1µM*
DT40 TDP1 no CPT	-1.8%	-15.3%	23.1µM*	/	4.41µM*	23.1µM*	3.0%	-3.9%	?	14.6µM*
uPA surface inh	3.1%	2.5%	-5.0%	/	/	-2.3%	0.5%	2.4%	-10.1%	-3.0%

(31) CCN(CC)c1cc2c(cc1F)c(=O)c(S(=O)(=O)c1ccc(OC)cc1)cn2Cc1ccccc1
(32) CCCCn1cc(S(=O)(=O)c2ccc(C)c(C)c2)c(=O)c2cc(F)c(N(CC)CC)cc21
(33) COc1cc2c(=O)c(S(=O)(=O)c3ccc(C)cc3)cn(Cc3cccc(C)c3)c2cc1OC
(34) O=c1c(S(=O)(=O)c2ccc(Cl)cc2)cn(Cc2ccccc2)c2ccc(F)cc12
(35) CCN(CC)c1cc2c(cc1F)c(=O)c(S(=O)(=O)c1ccccc1)cn2C
(36) CCN(CC)c1cc2c(cc1F)c(=O)c(S(=O)(=O)c1ccccc1)cn2Cc1ccccc1
(37) COc1ccc(-c2nnc(SCC(=O)Nc3cccc(C(F)(F)F)c3)s2)cc1
(38) COc1ccc(S(=O)(=O)c2cn(Cc3ccccc3)c3cc(F)c(F)cc3c2=O)cc1
(39) Cc1nn(C(=O)CCC(=O)NCCc2ccccc2)c2ccccc12
(40) CCCc1ccc(C(O)c2ncc(-c3ccccc3F)[nH]2)cc1 (centres undefined)

compound no.	31	32	33	34	35	36	37	38	39	40
miR-21 reporter	-1.0%	?	16.8%	-6.0%	-10.3%	11.8%	-42.7%	-0.7%	-5.0%	/
TDP1 block	1.2%	-1.2%	9.0%	-2.2%	-2.8%	5.0%	3.3%	3.8%	0.1%	/
DT40 TDP1 CPT	?	7.31µM*	16.4µM*	?	-28.2%	14.6µM*	?	14.6µM*	2.1%	18.4µM*
DT40 TDP1 no CPT	23.1µM*	8.2µM*	16.4µM*	?	?	16.4µM*	?	?	12.4%	?
uPA surface inh	/	/	/	-1.5%	/	/	/	/	0.9%	/

(41) CCc1ccc(C(O)c2ncc(-c3cccc4ccccc34)[nH]2)cc1 (centres undefined)
(42) CSc1ccc(C(O)c2ncc(-c3ccccc3Cl)[nH]2)cc1 (centres undefined)
(43) COc1ccccc1-c1cnc(C(O)c2ccc(SC)cc2)[nH]1 (centres undefined)
(44) CCc1ccc(C(O)c2ncc(-c3ccccc3Cl)[nH]2)cc1 (centres undefined)
(45) CSc1ccc(C(O)c2ncc(-c3ccccc3F)[nH]2)cc1 (centres undefined)
(46) O=C(Cn1cnc2ccccc2c1=O)NCCC(=O)Nc1ccc(F)cc1
(47) NC(=O)c1ccsc1NC(=O)CS(=O)(=O)c1ccc(F)cc1
(48) C/C(=N/O)c1no[n+]([O-])c1/C(C)=N\O

compound no.	41	42	43	44	45	46	47	48
miR-21 reporter	/	/	/	/	/	7.7%	/	4.2%
TDP1 block	/	/	/	/	/	0.4%	7.8%[0.505 µM]	/
DT40 TDP1 CPT	?	?	29.1µM*	-16.6%	29.1µM*	7.8%	?	-1.1%
DT40 TDP1 no CPT	16.4µM*	-27.4%	?	-25.1%	?	5.8%	?	2.2%
uPA surface inh	/	/	/	/	/	-3.8%	1.4%	-0.6%

Full records, quoted from the list. Order of screens: miR-21 reporter, TDP1 block, DT40 TDP1 CPT, DT40 TDP1 no CPT, uPA surface inh
CCc1ccc(C(O)c2ncc(-c3ccccc3Cl)[nH]2)cc1 (centres undefined) across the screens: /, /, -16.6%, -25.1%, /
CCc1ccc(C(O)c2ncc(-c3cccc4ccccc34)[nH]2)cc1 (centres undefined) across the screens: /, /, ?, 16.4µM*, /
CSc1ccc(C(O)c2ncc(-c3ccccc3Cl)[nH]2)cc1 (centres undefined) across the screens: /, /, ?, -27.4%, /
